pKi: −log10 of the molar value.
Molecular target: Androgen receptor (Homo sapiens, UniProt P10275)
Experiment: biochemical

Protein sequences, listed by entry. Tags and fused reporters are not part of them. Lines headed by an entry give the natural chain unless they say otherwise; changes in a name come on top.
UniProt P10275: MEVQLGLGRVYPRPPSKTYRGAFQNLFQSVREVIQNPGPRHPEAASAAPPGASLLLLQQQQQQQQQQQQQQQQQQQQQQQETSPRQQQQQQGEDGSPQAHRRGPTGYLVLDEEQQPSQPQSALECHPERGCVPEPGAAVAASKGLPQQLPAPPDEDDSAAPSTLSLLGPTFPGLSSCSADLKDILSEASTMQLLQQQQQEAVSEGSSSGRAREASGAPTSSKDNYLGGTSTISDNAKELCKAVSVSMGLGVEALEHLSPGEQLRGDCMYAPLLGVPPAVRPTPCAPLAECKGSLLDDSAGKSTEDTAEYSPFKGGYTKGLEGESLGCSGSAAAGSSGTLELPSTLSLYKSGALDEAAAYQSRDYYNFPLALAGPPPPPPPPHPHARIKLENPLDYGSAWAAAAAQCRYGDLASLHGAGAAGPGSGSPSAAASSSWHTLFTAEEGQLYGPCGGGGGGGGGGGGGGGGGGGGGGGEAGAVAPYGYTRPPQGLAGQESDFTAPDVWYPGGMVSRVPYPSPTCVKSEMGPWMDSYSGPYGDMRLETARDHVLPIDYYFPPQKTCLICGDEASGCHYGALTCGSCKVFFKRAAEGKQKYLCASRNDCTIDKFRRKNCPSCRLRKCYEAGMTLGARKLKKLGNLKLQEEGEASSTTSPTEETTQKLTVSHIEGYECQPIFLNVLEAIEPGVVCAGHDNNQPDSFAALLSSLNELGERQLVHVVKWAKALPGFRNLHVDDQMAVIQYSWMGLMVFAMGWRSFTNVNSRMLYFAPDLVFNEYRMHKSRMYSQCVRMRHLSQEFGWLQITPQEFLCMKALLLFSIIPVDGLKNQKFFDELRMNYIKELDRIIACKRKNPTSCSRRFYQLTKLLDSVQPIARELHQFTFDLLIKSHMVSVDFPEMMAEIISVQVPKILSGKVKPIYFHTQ

COc1ccc(CNc2cc(C(F)(F)F)c3cc4c(cc3n2)NC(C)(C)CC4)cc1
pKi: < 6.00

Source: ChEMBL document CHEMBL1133046, “Effects of isosteric pyridone replacements in androgen receptor antagonists based on 1,2-dihydro- and 1,2,3,4-tetrahydro-2,2-dimethyl-6-trifluoromethyl-8-pyridono[5,6-g]quin olines” (Bioorg Med Chem Lett, 2000)
